Source: patent US8957114B2, “Formulations, salts and polymorphs of transnorsertraline and uses thereof” (Sunovion Pharmaceuticals Inc., priority 2009, dated 2015)

Tests used:
[1] = Solubility of transnorsertraline salts in de-ionized water (HPLC); conditions: for Solubility in Freebase Equivalents mgA/mL: de-ionized water, ambient, shaken up to nine days until equilibrium
Method: For each salt, saturated solutions with excess solids in deionized water were prepared in 20 mL clear glass scintillation vials with screw caps. All samples were shaken at 300 rpm at ambient conditions for up to nine days until equilibrium was achieved. Solubility was determined using a HPLC method (Table 5).

[2] = Solubility of transnorsertraline salts in aqueous buffer systems (SGF, acetate buffer pH 4.5, SIF; HPLC); format: physicochemical; conditions: for Solubility in Freebase Equivalents mgA/mL: ambient, up to nine days
Method: Saturated solutions with excess solids were prepared in 20 mL clear glass scintillation vials. Simulated gastric fluid (pH 1.0, ˜0.1N HCl, 0.03M NaCl, no enzymes), simulated intestinal fluid (pH 6.8, 0.05M KH2PO4, ˜0.02N NaOH, no enzymes), and acetate buffer (pH 4.5, 0.02M sodium acetate, 0.03M acetic acid) were prepared in accordance with USP28 (USP28 Test Solutions p2855, Volumetric Solutions p2863). […] Solubility was determined using a HPLC method.

[3] = Simulated Gastric Fluid (no enzymes)
[4] = Simulated Intestinal Fluid (pH 6.8, no enzymes)

Substance | Solubility in Freebase Equivalents mgA/mL [1] [mgA/mL] | Solubility in Freebase Equivalents mgA/mL ([2]; 0.05M Acetate Buffer (pH 4.5)) [mgA/mL] | Solubility in Freebase Equivalents mgA/mL [2, 3] [mgA/mL] | Solubility in Freebase Equivalents mgA/mL [2, 4] [mgA/mL] | pH ([1]; saturated solution in de-ionized water) | pH ([2]; saturated solution in 0.05M Acetate Buffer (pH 4.5)) | pH ([2]; saturated solution in Simulated Gastric Fluid) | pH ([2]; saturated solution in Simulated Intestinal Fluid)
L-tartrate | 0.44 | 0.03 | <0.01 | 0.27 | – | – | – | –
Benzoate | 0.59 | 0.79 | <0.01 | 0.11 | 6.34 | 4.61 | 1.25 | 6.77
